{"source": "patent US20230027247A1", "about": "“SMALL MOLECULE COMPOUNDS FOR AMPLIFYING HEMATOPOIETIC STEM CELLS, AND COMBINATION THEREOF” (EDIGENE (GUANGZHOU) INC., priority 2019, published 2023)", "key": {"[1]": {"test_system": "umbilical cord blood-derived CD34+ cells", "details": "for maintaining the stemness of HSCs (comparison with SAHA): FIG. 8, inhibitors of Table 5 alone or combined with SAHA"}, "[2]": {"test_system": "umbilical cord blood-derived CD34+ cells", "experiment": "In vitro expansion and stemness maintenance, 8 days of treatment (flow cytometry and cell counting)", "assay_type": "cell-based, human", "details": "for proportion of CD34+ cells: FIG. 18, SR1 5 μM, UM171 350 nM, Dasatinib 50 nM", "experimental": "20 μL of cell suspension is respectively taken on day 2, day 4, day 6 and day 8 of the culture to count in a cell counter (Nexcelom, model: Cellometer K2), calculating the final absolute number of CD34+ cells and LT cells on day 8 (absolute number of cells=cell proportion*total number of cells), the results are shown in FIG. 18."}}, "note": "Where two headings read alike, the source gives them in different places.", "data": [{"compound": "CCCC(=O)[O-].[Na+]", "note": "[Butyrate, Sodium butyrate]", "values": [{"measurement": "maintaining the stemness of HSCs (comparison with SAHA alone)", "setting": "[1]; Butyrate alone, results obtained in Example 4", "value": "not as good as that of SAHA alone"}, {"measurement": "toxicity to cells", "setting": "[1]; FIG. 9, high concentration of Butyrate", "value": "highly toxic to cells"}]}, {"compound": "Cn1nnc(-c2ccc3c(c2)[nH]c2nc(Cc4ccccc4)nc(NC4CCC(N)CC4)c23)n1", "note": "(centres unmarked) [UM171]", "values": [{"measurement": "proportion of CD34+ cells", "setting": "[2]", "value": "about 40%"}, {"measurement": "maintaining the stemness of HSCs (comparison with SAHA)", "setting": "[1]", "value": "far less effective than SAHA"}]}, {"compound": "O=C(Nc1ccccc1)c1cc([N+](=O)[O-])ccc1Cl", "note": "[GW9662]", "values": [{"measurement": "maintaining the stemness of HSCs (comparison with SAHA)", "setting": "[1]", "value": "far less effective than SAHA"}]}, {"compound": "CCC(=O)O[C@]1(C(=O)SCF)[C@H](C)C[C@H]2[C@@H]3C[C@H](F)C4=CC(=O)C=C[C@]4(C)[C@@]3(F)[C@@H](O)C[C@@]21C", "note": "[FLU, Fluticasone propionate]", "values": [{"measurement": "maintaining the stemness of HSCs (comparison with SAHA)", "setting": "[1]", "value": "far less effective than SAHA"}]}, {"compound": "Cn1cc(C2=C(c3cn(C4CCN(Cc5ccccn5)CC4)c4ccccc34)C(=O)NC2=O)c2ccccc21", "note": "[Enzastaurin]", "values": [{"measurement": "proportion of LT-HSCs, times higher than that of other inhibitors (other than SAHA)", "setting": "[1]; FIG. 5, Enzastaurin used at low concentrations, Table 7", "value": "3-10 times"}]}, {"compound": "Cc1cc(NC(=O)c2cccc(NC(=O)/C=C/CN(C)C)c2)ccc1Nc1nccc(-c2cccnc2)n1", "note": "[JNK-IN-8]", "values": [{"measurement": "proportion of CD34+ cells", "setting": "[1]; FIG. 5, Table 7", "value": "about 90%"}]}, {"compound": "O=C(CCCCCCC(=O)Nc1ccccc1)NO", "note": "[SAHA]", "values": [{"measurement": "maintaining the proportion of CD34+ cells (comparison)", "setting": "[1]; FIG. 2, SAHA 1 μM vs Mock, 0.01% DMSO", "value": "slightly better than the control group"}, {"measurement": "increasing the proportion of LT-HSCs, times more effective than other inhibitors", "setting": "[1]; FIG. 2, vs other inhibitors in Table 4, 6-7 days", "value": "2-20 times"}, {"measurement": "maintaining stemness of HSCs, times more effective than the reported small molecules", "setting": "[1]; FIG. 3, SAHA 1 μM vs UM171, PGE2, SR1, GW9662 and FLU (Table 5)", "value": "2-20 times"}, {"measurement": "maintaining the proportion of CD34+ cells (comparison)", "setting": "[1]; FIG. 4, vs other inhibitors in Table 6", "value": "better than other inhibitors"}, {"measurement": "maintaining the stemness of HSCs, times more effective than other inhibitors", "setting": "[1]; FIG. 5, SAHA 1 μM vs other inhibitors in Table 7", "value": "1-12 times"}, {"measurement": "maintaining the proportion of CD34+ cells (comparison)", "setting": "[1]; FIG. 5, Table 7", "value": "slightly better than other inhibitors except JNK-IN-8"}, {"measurement": "maintaining the proportion of CD34+ cells (comparison)", "setting": "[1]; FIG. 6, Table 8", "value": "superior to other small molecules"}, {"measurement": "maintaining the stemness of LT-HSCs, times more effective than other small molecules (except VPA)", "setting": "[1]; FIG. 6, Table 8", "value": 15, "unit": "times"}, {"measurement": "proportion of CD34+ cells", "setting": "[1]; FIG. 15", "value": "about 80%"}, {"measurement": "proportion of CD34+ cells", "setting": "[1]; FIG. 17, Table 9", "value": "about 80%"}]}, {"compound": "O=C(NCc1cccc(O)c1)c1cc2cc(F)ccc2[nH]1", "note": "[KX1-004]", "values": [{"measurement": "maintaining the stemness of LT-HSCs (comparison with SAHA)", "setting": "[1]; FIG. 17, Table 9", "value": "not significantly different from that of SAHA"}]}, {"compound": "CCCC(CCC)C(=O)O", "note": "[VPA, Valproic acid]", "values": [{"measurement": "maintaining the proportion of CD34+ cells (comparison)", "setting": "[1]; FIG. 6, Table 8", "value": "superior to other small molecules"}, {"measurement": "maintaining the stemness of LT-HSCs, higher than SAHA", "setting": "[1]; FIG. 6, vs SAHA", "value": "about 1 time"}, {"measurement": "maintaining the stemness of LT-HSCs, times higher than other small molecules", "setting": "[1]; FIG. 6, vs other small molecules in Table 8", "value": "about 30 times"}, {"measurement": "proportion of CD34+ cells", "setting": "[1]; FIG. 15", "value": "about 80%"}]}, {"compound": "CC(C)n1cnc2c(NCCc3ccc(O)cc3)nc(-c3csc4ccccc34)nc21", "note": "[SR1, StemRegenin1]", "values": [{"measurement": "proportion of CD34+ cells", "setting": "[2]", "value": "about 65%"}, {"measurement": "maintaining the stemness of HSCs (comparison with SAHA)", "setting": "[1]", "value": "far less effective than SAHA"}]}, {"compound": "Cc1nc(Nc2ncc(C(=O)Nc3c(C)cccc3Cl)s2)cc(N2CCN(CCO)CC2)n1", "note": "[Dasatinib]", "values": [{"measurement": "maintaining stemness, times more effective than SR1", "setting": "[2]; FIG. 18, Dasatinib 50 nM vs SR1 5 μM", "value": "about 1.2 times"}, {"measurement": "maintaining stemness, times more effective than UM171", "setting": "[2]; FIG. 18, Dasatinib 50 nM vs UM171 350 nM", "value": "about 2.8 times"}, {"measurement": "proportion of CD34+ cells", "setting": "[2]", "value": "about 40%"}]}, {"compound": "CCCCC[C@H](O)/C=C/[C@H]1[C@H](O)CC(=O)[C@@H]1C/C=C\\CCCC(=O)O", "note": "[PGE2]", "values": [{"measurement": "maintaining the stemness of HSCs (comparison with SAHA)", "setting": "[1]", "value": "far less effective than SAHA"}]}, {"compound": "Cc1nc(Nc2ncc(C(=O)Nc3cc(NC(=O)c4cccc(C(F)(F)F)c4)ccc3C)s2)cc(N2CCN(CCO)CC2)n1", "note": "[UM-164]", "values": [{"measurement": "maintaining the proportion of CD34+ cells (comparison with SAHA)", "setting": "[1]; FIG. 17, Table 9", "value": "no significant difference"}, {"measurement": "proportion of CD34+ cells", "setting": "[1]; FIG. 17, Table 9", "value": "about 80%"}, {"measurement": "maintaining the stemness of LT-HSCs, times more effective than SAHA", "setting": "[1]; FIG. 17, Table 9, SAHA 1 μM", "value": 5, "unit": "times"}]}]}
